Experimental findings from patent US11149018B2, “Substituted N-arylethyl-2-aminoquinoline-4-carboxamides and use thereof” (Bayer Aktiengesellschaft, priority 2017, dated 2021) are described below.

Protein sequences, listed by entry. Tags and fused reporters are not part of them.
UniProt P43088, whole entry: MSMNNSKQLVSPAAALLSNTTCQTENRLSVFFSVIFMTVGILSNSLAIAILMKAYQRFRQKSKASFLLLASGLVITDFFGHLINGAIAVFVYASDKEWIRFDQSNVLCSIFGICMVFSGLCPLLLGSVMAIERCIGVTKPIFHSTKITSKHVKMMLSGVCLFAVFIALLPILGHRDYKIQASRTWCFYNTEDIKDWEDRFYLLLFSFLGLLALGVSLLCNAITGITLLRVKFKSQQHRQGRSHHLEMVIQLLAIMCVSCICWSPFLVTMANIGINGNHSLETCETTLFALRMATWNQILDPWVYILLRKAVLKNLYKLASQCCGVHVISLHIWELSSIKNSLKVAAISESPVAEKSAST

This experiment deals with FP receptor (Homo sapiens (Human), UniProt P43088). Briefly: In vitro test of inhibition of human FP receptor activity (PGF2α-induced calcium flux in FP-expressing CHEM1 cells). The class given is cell-based. Conditions: read-out: FP receptor activity IC50, PGF2α 2 nM, some mean values of multiple determinations. (Calcium assays in cells follow changes in intracellular calcium, usually with a dye or a luminescent sensor.)

One may read the IC50 as the point on the concentration scale where inhibition reaches its midpoint. On to `[2H]C1([2H])N(c2nc3ccc(Br)cc3c(C(=O)NCC(CCC(=O)O)c3c(F)ccc(F)c3Cl)c2C)C([2H])([2H])C([2H])([2H])C1([2H])[2H]` (single isomer, unassigned), for which the IC50 was 1.9 nM.
